Source: publication PMC10229121 (2023)

B1: GST-KDM7A PHD (residues 1-100) (domain or fragment)
chain: MAGAAAAVAAGAAAGAAAAAVSVAAPGRASAPPPPPPVYCVCRQPYDVNRFMIECDICKDWFHGSCVGVEEHHAVDIDLYHCPNCAVLHGSSLMKKRRNW
B2: GST-DIDO1 PHD (residues 250-340) (domain or fragment)
chain: EPGDLGRPKPECEGYDPNALYCICRQPHNNRFMICCDRCEEWFHGDCVGISEARGRLLERNGEDYICPNCTILQVQDETHSETADQQEAKW
B3: GST-MLL5 PHD (residues 100-180) (domain or fragment)
chain: TSSATTISTSEDGSYGTDVTRCICGFTHDDGYMICCDKCSVWQHIDCMGIDRQHIPDTYLCERCQPRNLDKERAVLLQRRK

How the values were obtained:
[1] = biological target: H3K4me3K9acK14acK18ac nucleosome (homotypic, PTM-defined) (UniProt P68431 1-136; P62805 1-103; P04908 1-130; O60814 1-126, trimethyl-lysine at K4; acetyl-lysine at K9, K14, K18)
[2] = biological target: H3K4me3 nucleosome (homotypic, PTM-defined) (UniProt P68431 1-136; P62805 1-103; P04908 1-130; O60814 1-126, trimethyl-lysine at K4)

Binder | EC50 [1] | EC50 [2]
B1 | 5.3 nM | 16.3 nM
B2 | 1.2 nM | 4 nM
B3 | 11.7 nM | 
